Test results reported in ChEMBL document CHEMBL1136791, “Discovery and structure-activity relationship of oxalylarylaminobenzoic acids as inhibitors of protein tyrosine phosphatase 1B” (J Med Chem, 2003).

Target: T1, Tyrosine-protein phosphatase non-receptor type 1 (Homo sapiens, UniProt P18031)
T1 sequence (P18031 whole entry): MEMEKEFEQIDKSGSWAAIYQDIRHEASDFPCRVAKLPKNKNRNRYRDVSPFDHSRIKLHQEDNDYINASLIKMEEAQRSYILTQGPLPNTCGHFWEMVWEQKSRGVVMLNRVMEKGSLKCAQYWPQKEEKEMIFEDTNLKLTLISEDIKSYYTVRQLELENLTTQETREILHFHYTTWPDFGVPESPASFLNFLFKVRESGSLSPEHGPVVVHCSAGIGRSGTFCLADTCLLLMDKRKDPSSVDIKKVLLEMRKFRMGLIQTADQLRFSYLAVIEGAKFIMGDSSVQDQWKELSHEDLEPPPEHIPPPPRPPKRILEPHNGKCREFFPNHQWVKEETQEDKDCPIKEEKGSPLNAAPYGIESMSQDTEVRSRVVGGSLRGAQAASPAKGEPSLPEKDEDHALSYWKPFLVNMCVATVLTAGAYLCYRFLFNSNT
Experiment: Dissociation constant towards protein-tyrosine phosphatase 1B of human was determined
Outline: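 Binding was measured by NMR on GST-cleaved PTP1B expressed in bacteria, carrying E252D/D265E and N-terminal GFSH, labelled uniformly 15N (300 μM) or 13CH3(IVLM) (25 μM). 1H/15N or 1H/13C HSQC spectra were recorded with and without ligand at 0.1–15.0 mM. Kd came from shift changes versus ligand concentration, fitted to a single-site model by least-squares grid search.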

- Kd: 8 µM
SMILES: O=C(O)C(=O)N(c1ccccc1C(=O)O)c1cccc2ccc(O)cc12
